smiles,measurement,value
CN(C)P(=O)(F)N(C)C,log10 OH rate constant (cm³/molecule/s),-10.2

# Source: the OPERA property sets (Mansouri et al. 2018)
